Values of other authors in patent US6576670B1, “Use of a 5HT2A and 5HT2A/C receptor antagonist for treating snoring and high resistance syndrome of upper anatomical airways” (Sanofi—Synthelabo, priority 1998, dated 2003).

Tests used:
5HT2 receptor [1] = conditions: in vivo; cited from earlier work
5HT2 receptor [2] = conditions: rats; cited from earlier work

## Clc1ccc2c(c1)C(N1CCNCC1)=Nc1ccccc1O2 [amoxapine]
5HT2 receptor [1]
  slow wave sleep time: regulate or increase

## CC[C@@H](CO)NC(=O)[C@@H]1C=C2c3cccc4c3c(cn4C)C[C@H]2N(C)C1 [methysergide]
5HT2 receptor [2]
  apnea induced by 5-HT: inhibit
